## Antibody variant affinities, Ab-14 light chain, assay 1

Target: peptide PDVDLGDISGINAS, taken from heptad repeat 2 (HR2) of SARS-CoV-2 spike.

Each scFv is VH, the linker GGGGSGGGGSGGGGS, VL, as in the parent Ab-14, and differs from it in the CDRs of the light chain only.
VH: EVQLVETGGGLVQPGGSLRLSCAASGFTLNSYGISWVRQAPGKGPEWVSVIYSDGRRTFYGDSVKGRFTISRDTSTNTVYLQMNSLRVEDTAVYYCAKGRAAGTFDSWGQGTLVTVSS
VL: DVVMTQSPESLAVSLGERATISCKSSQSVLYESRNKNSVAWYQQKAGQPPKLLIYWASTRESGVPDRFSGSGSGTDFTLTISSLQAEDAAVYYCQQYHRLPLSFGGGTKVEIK

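The starting antibody came from a phage panning campaign against this peptide. AAYL50 was designed without a model: most single CDR substitutions and a random sample of double and triple ones. The scFvs were displayed on barcoded MATa yeast, the peptide on MATalpha yeast. The frequency of each diploid, read from paired DNA barcodes, reflects how well the two displayed proteins bind. Scores were corrected for input abundance and mapped to Kd with protein pairs of known affinity run in the same pool. Each pool was mated in three replicate cultures.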

Changes read parent residue, position, new residue, counted from the first residue of the VL shown. Affinities are written as log10 Kd with Kd in nM; a lower number is a better binder. A mean of the replicates is given; it leaves out those without a signal. "nd" marks a missing value. The strain was present, yet no cells mated with the target were sequenced in any replicate, which points to weak or no binding. Entries are sorted by rising average, undetected variants last. As a blank, each scFv also met three strains without target: over library AAYL50, 18% of these pairings were detected, typically at 4.19 and seldom below 2.99. In this assay the parent's reference entry averaged 0.65; its copy inside this library read 1.68.

changes	mean log10 Kd (nM)	replicates with signal
S25M/E32P/S33N	0.05	3 of 3
V29S/K36S/E61S	0.45	3 of 3
S28P/L102T	0.84	3 of 3
L30A/W56S/S103Y	0.90	3 of 3
S28H/V29Q	1.24	3 of 3
E61I/Q95Y/Q96R	1.32	3 of 3
S26C/R34N	1.68	3 of 3
Q27R/L30D/L100S	1.71	3 of 3
Y31V/R34W/S58K	2.26	3 of 3
W56Y/R60P/P101I	2.35	3 of 3
S28C/S33T/Q95I	2.35	3 of 3
N35K/Q96K/H98F	2.47	3 of 3
W56C/A57S	2.70	3 of 3
L30Q/E32C/N35W	2.79	3 of 3
S28I/E61F/Q95E	3.24	1 of 3
S28V/N35I/Q96F	3.34	3 of 3
S33I/N35P/P101N	3.41	3 of 3
K36L/S38N/R60Y	3.46	1 of 3
S38D/A57D/Q95Y	3.56	2 of 3
S26K/Y31F/P101D	3.59	3 of 3
K24G/V29T/N35P	3.67	3 of 3
N35E/Q96N/H98G	3.75	1 of 3
Q27S/Y31S	4.05	2 of 3
E32N/R34E/L102W	4.20	2 of 3
E61M/L102D/S103E	4.32	1 of 3
S28M/R60Q/Q96M	4.39	1 of 3
A40L/S58N/Q96T	4.64	1 of 3
K36D/R60E/H98C	4.70	3 of 3
S25E/A57W/Q95S	5.16	1 of 3
V29F/K36E/P101D	nd	0 of 3
S28Q/L100E/P101V	nd	0 of 3
R34C/Y97M/P101V	nd	0 of 3
S28A/A57V	nd	0 of 3
L30E/T59A/Q96W	nd	0 of 3
S25Y/R60A/Q96V	nd	0 of 3
R60D/S103Q	nd	0 of 3
S28I/E61F/Q95C	nd	0 of 3
A40D/R99E/S103R	nd	0 of 3
R34W/Q95P/L102F	nd	0 of 3
K36Q/S38K/R60V	nd	0 of 3
E32G/K36C/A40W	nd	0 of 3
S38D/S62F/H98N	nd	0 of 3
E32V/S33C/Q96Y	nd	0 of 3
R34I/S62T/Q95R	nd	0 of 3
Q95W/Y97K/S103D	nd	0 of 3
E32D/A57S/Q95K	nd	0 of 3
A57L/R99A/S103G	nd	0 of 3

Repeated from above, the 7 best binders with a signal in all replicates:

changes	mean log10 Kd (nM)	replicates with signal
S25M/E32P/S33N	0.05	3 of 3
V29S/K36S/E61S	0.45	3 of 3
S28P/L102T	0.84	3 of 3
L30A/W56S/S103Y	0.90	3 of 3
S28H/V29Q	1.24	3 of 3
E61I/Q95Y/Q96R	1.32	3 of 3
S26C/R34N	1.68	3 of 3

Reference: Engelhart et al. 2022, doi:10.1038/s41597-022-01779-4. File: FLAb, binding data.